Laboratory results as given in patent US20160019374A1, “METHODS FOR ESTABLISHING COMBINATIONS OF KINASE INHIBITORS FOR THE TREATMENT OF MEDICAL CONDITIONS” (SALGOMED, INC., priority 2014, published 2016).

Test system: A549 (lung adenocarcinoma)
Experiment: Kinase inhibitor screen, selectivity = IMR-90 to A549 viability ratio (ATPlite 1 Step)
Conditions: secondary screen: drug at 1000 nM paired with PDK1/Akt1/Flt3 Dual Pathway Inhibitor at 125 nM; FIG. 4

N#CCCc1ccc2c(c1)-c1[nH]c3ccc([N+](=O)[O-])cc3c1CC(=O)N2 [A12, Alsterpaullone, 2-Cyanoethyl] was tested, and the “selectivity S for the pair (IMR-90 to A549 viability ratio)” value was 6.14.
